# ChEMBL document CHEMBL1128801, “Synthesis and biological evaluation of 14-alkoxymorphinans.12.1 A phenethyl analogue of the -selective opioid receptor antagonist cyprodime” (Bioorg Med Chem Lett, 1995)
# Assays:
# Cavia porcellus = species on record: Cavia porcellus; test: In vitro evaluation of antagonistic activity induced by naloxone in guinea-pig ileum myenteric plexus preparation (GPI)
# Mus musculus = species on record: Mus musculus; test: In vitro evaluation of antagonist activity induced by naloxone on mouse vas deferens preparation
structure (smiles),measurement,setting,value
CN(C(=O)Cc1ccccc1)[C@H]1CC[C@@]2(CCCO2)C[C@@H]1N1CCCC1,Ke,Cavia porcellus,9 nM
same,Ke,Mus musculus,20.4 nM
